Values quoted from earlier work as cited in patent US7208615B2, “Triple mineral salts of (-)-hydroxycitric acid and processes for preparing the same” (Laila Impex, priority 2004, dated 2007).

Details: background art (Singh et al., Biol. Memoirs 1995)

solubility in water: not very soluble in water
Substance: calcium salt of HCA
